Molecules are shown by their SMILES. This is a selection; strong and weak results do not stand in their true shares. The source made the active and inactive calls.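 The calls were made as follows: active = activation of at least 8% versus controls, or a plate z-score of at least 8; inactive = the rest.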

A short description of this assay: activators of alpha-DG glycosylation, primary screen, uHTS, Pro5-aDG cells, AlphaScreen (AID 624168).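 Also: Pro5 are CHO cells carrying HIG-tagged alpha-DG that lacks glycosylation.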 The conditions noted are these: alpha-DG glycosylation AlphaScreen (IIH6), at 10 µM, stronger effect = higher value, 0% Pro5, 100% B10-LARGE cell signal. Background: In Alpha technology, singlet oxygen from a donor bead excites a nearby acceptor bead.
With `COC(=O)C1(C)COP(=O)(N2CCCCCC2)OC1` (centres undefined), the activation was inactive: -0.1%.

For `ClCCSc1nnc(-c2cccnc2)o1`, the activation is inactive: 0.3%. With `CCN(CC)C(=S)SC(NC=O)C(Cl)(Cl)Cl` (centres undefined) the figure was inactive: 0.7%; with `O=C(OC1CN2CCC1CC2)c1cccc2[nH]cnc12` (centres undefined), inactive: 0%. For `CC(C)NC(=O)NP(=O)(Oc1ccccc1)Oc1ccccc1`, the activation is inactive: 0.4%.

Regarding `O=[N+]([O-])c1cc([N+](=O)[O-])c(-c2ccn[nH]2)s1`, the activation is active: 9.5%. With `CC1CCNP(=O)(N(CCCl)CCCl)O1` (centres undefined) the figure was inactive: -0.1%; with `O=C(O)C(O)c1ccc(N(CCCl)CCCl)cc1` (centres undefined), inactive: -0.1%. Next, `CCOC(=O)Nc1ccc([As](=O)(O)O)c(O)c1`: inactive: 0.1%; `CCCCOc1ccc(C(=O)NCC2(N3CCCCC3)CCCCC2)cc1OC`: inactive: 0%; `Cc1cc(SC(NC(=O)c2ccccc2)C(Cl)(Cl)Cl)nc(C(C)C)n1` (centres undefined): inactive: 1.8%.

On to `COP(=O)(OC)N1CC1c1ccccc1` (centres undefined), for which the activation is inactive: -0.3%.

As to `CCOC(=O)Nc1cccc([As](=O)(O)O)c1`, the activation is inactive: 0%.

`O=[N+]([O-])c1ccc(Nc2ccc(Oc3ccc([N+](=O)[O-])cc3[N+](=O)[O-])cc2)c([N+](=O)[O-])c1`: the activation is inactive: 0%.

As for `Cc1cc(SC(NC=O)C(Cl)(Cl)Cl)ncn1` (centres undefined), the activation is inactive: 0.3%. For `O=P(Nc1ccccn1)(c1cccc2ccccc12)c1cccc2ccccc12`, the activation was inactive: -0.1%. `COP1(=S)c2c(C)nn(CCC#N)c2N=C(c2ccc(F)cc2)N1C` (centres undefined): the activation is inactive: 0%. Consider `COC(=O)C1(C)COP(=O)(N2CCCC2)OC1` (centres undefined), for which the activation is inactive: 0%. `O=C(COc1ccccc1)OC1CN2CCC1CC2` (centres undefined): the activation is inactive: -0.4%. With `O=C(Nc1ccncc1[N+](=O)[O-])c1ccc([N+](=O)[O-])cc1[N+](=O)[O-]` the figure was inactive: 0.5%; with `O=C(O)C(=O)c1ccc(N(CCCl)CCCl)cc1`, inactive: 0%; with `CCOC(=O)c1ccc(NC(=O)C(C)(CCl)SC)cc1` (centres undefined), inactive: -0.1%. Next, `O=C(OC1CN2CCC1CC2)c1cccc([N+](=O)[O-])c1` (centres undefined): inactive: 0%.

Regarding `CSc1ccc(Nc2c([N+](=O)[O-])cc([N+](=O)[O-])cc2[N+](=O)[O-])cc1`, the activation is inactive: -0.2%. Next, `CCC(C)N(CC(C)C)C(=S)SC(NC(C)=O)C(Cl)(Cl)Cl` (centres undefined): inactive: -0.3%; `CN(CCCl)Cc1cc(Cl)c(NC2=NCCN2)c(Cl)c1`: inactive: 0.1%; `CCOP(=O)(Nc1ccc(C)cn1)OCC`: inactive: 0%. Next, `CCC1=CC2Cc3nc4ccc(Cl)cc4c(N)c3C(C1)C2` (centres undefined): active: 3.4%; `O=P1(Nc2ccccn2)COc2ccccc2OC1`: inactive: 0.6%. Next, `CCOP(=O)(NC(=NC(C)c1ccccc1)NC(C)c1ccccc1)OCC` (centres undefined): inactive: -0.2%. Take `Clc1n[nH]nc1-c1nn[nH][15n]1`: the activation is inactive: 0%. With `O=P1(N(CCCl)CCCl)NCCC(C(F)(F)F)O1` (centres undefined) the figure was inactive: -0.3%; with `CC(C)(C)C(=O)NC(Sc1ncccn1)C(Cl)(Cl)Cl` (centres undefined), inactive: -0.1%; with `COc1ccccc1CNC(=O)COC(=O)C(O)(c1ccccc1)c1ccccc1`, inactive: 0.1%. Next, `CC1(CBr)Cn2c(nc3ccccc3c2=O)S1` (centres undefined): inactive: -0.6%; `CN(C(=O)Cc1ccc(Cl)c(Cl)c1)[C@@H]1CCCC[C@H]1N1CCCC1`: inactive: 0%. On to `CC(C)/C=N\N=C(\N)N[N+](=O)[O-]`, for which the activation was inactive: -0.5%.

Regarding `Cc1nn(-c2ccccc2)c2c1P(=O)(N1CCOCC1)N(C)C(c1ccccc1)=N2` (centres undefined), the activation was inactive: 0.1%. Next, `Cc1ccc(C(=O)OC2CN3CCC2CC3)cc1` (centres undefined): inactive: 0%; `CC1CCC(C(C)C)C(OP(=O)(Nc2ccccn2)c2ccccc2)C1` (centres undefined): inactive: -0.2%. With `O=C(/C=C/c1ccccc1)OC1CN2CCC1CC2` (centres undefined) the figure was inactive: 0%. Next, `CCCC1OP(=O)(Nc2ccccc2)OCC1CC` (centres undefined): inactive: -0.2%; `CN(C)C1(CNC(=O)c2ccc(S(C)(=O)=O)cc2)CCCCC1`: inactive: -0.1%. As for `O=P1(Nc2ncccn2)COc2ccccc2OC1`, the activation is inactive: 0%. Next, `Cc1ccc(S(=O)(=O)N(CCCN)CCCc2c(C)nc(N)[nH]c2=O)cc1`: inactive: -0.2%; `NS(=O)(=O)c1cccc(NC(=O)COC(=O)C(O)(c2ccccc2)c2ccccc2)c1`: inactive: -0.1%. Take `O=P1(Nc2ccc(Br)cn2)COc2ccccc2OC1`: the activation is inactive: 0%. For `Cc1ccc(OCC(=O)OC2CN3CCC2CC3)cc1` (centres undefined), the activation was inactive: -0.2%. With `O=[As](O)(c1cccs1)c1cccs1` the figure was inactive: 0.1%.

For `Nc1cccc([As](=O)(O)c2ccccc2)c1`, the activation is inactive: -0.1%. Next, `CS(=O)(=O)c1cc([N+](=O)[O-])c2no[n+]([O-])c2c1`: inactive: 0.1%; `CCOP1(=S)c2c(C)nn(CCC#N)c2N=C(c2ccccc2F)N1C` (centres undefined): inactive: -0.1%; `O=P(Nc1nccs1)(c1ccccc1)c1nc2ccccc2s1` (centres undefined): inactive: 0.3%.

As for `O=P(Nc1nccs1)(Oc1ccccc1)Oc1ccccc1`, the activation was inactive: -0.3%. With `O=C(O)COc1ccc([As](=O)(O)O)cc1[N+](=O)[O-]` the figure was inactive: 0.4%. Next, `Nc1ccccc1[As](=O)(O)c1ccccc1`: inactive: 0%; `NC(=O)Nc1ccc([As](=O)(O)O)cc1`: inactive: -0.1%; `CN(C)C(=O)c1cc([N+](=O)[O-])cc2c1-c1c(cc([N+](=O)[O-])cc1[N+](=O)[O-])C2=O`: inactive: -0.3%. With `O=[N+]([O-])c1ccc2c(c1)nnn2O`, the activation is inactive: -0.2%. Next, `CN(C(=O)Cc1ccc(Cl)c(Cl)c1)[C@H]1CC[C@@]2(CCCO2)C[C@@H]1N1CCCC1`: inactive: 0.1%.

For the molecule `N#CCCN(C(=O)COC(=O)C(O)(c1ccccc1)c1ccccc1)c1ccc(F)cc1`, the activation was inactive: 0.2%. With `CN(C(=O)Cc1ccccc1)[C@@H]1CC[C@]2(CCCO2)C[C@H]1N1CCCC1` the figure was inactive: 1.6%.

In the case of `CCOP1(=S)c2c(C)nn(CCC#N)c2N=C(c2ccc(F)cc2)N1C` (centres undefined), the activation is inactive: 0.3%.

Regarding `COc1cc(C(=O)NCC2(N3CCOCC3)CCCCC2)cc(Cl)c1OC(C)C`, the activation was inactive: -0.1%.

In the case of `O=[As](O)(O)c1cccnc1`, the activation was inactive: 0%. In the case of `CS(=O)(=O)c1ccc(Cl)c(NC(=O)COC(=O)C(O)(c2ccccc2)c2ccccc2)c1`, the activation is inactive: -0.1%. Next, `O=C(OC1CN2CCC1CC2)c1ccc(Cl)cc1` (centres undefined): inactive: 0%; `O=[As](O)(c1cccc(O)c1)c1cccc(O)c1`: inactive: 0%; `Cc1cccc(OCC(=O)OC2CN3CCC2CC3)c1` (centres undefined): inactive: 0%. Regarding `CCCOP(=S)(Nc1nc(N)cc(=O)[nH]1)OCCC`, the activation was inactive: 0.1%. Next, `Cc1ccc(NCCc2c([N+](=O)[O-])cc([N+](=O)[O-])cc2[N+](=O)[O-])cc1`: inactive: 0.1%; `Nc1cccc2c([As](=O)(O)O)cccc12`: inactive: 0.1%. On to `COc1cc(C2NCCC3(OCCO3)C2(C)C)cc(OC)c1OC` (centres undefined), for which the activation is inactive: 0.1%.

With `CCOP(=O)(Nc1cccc2ccccc12)OCC`, the activation was inactive: 0.2%.

The record behind these values is PubChem BioAssay AID624168 (Sanford-Burnham Center for Chemical Genomics, 2012).
